Results taken from ChEMBL document CHEMBL1153941, “Synthesis, molecular modeling, and selective inhibitory activity against human monoamine oxidases of 3-carboxamido-7-substituted coumarins” (J Med Chem, 2009).

Sequences of proteins named here, by UniProt entry; tags and fusion partners are left off.
UniProt P27338, whole entry: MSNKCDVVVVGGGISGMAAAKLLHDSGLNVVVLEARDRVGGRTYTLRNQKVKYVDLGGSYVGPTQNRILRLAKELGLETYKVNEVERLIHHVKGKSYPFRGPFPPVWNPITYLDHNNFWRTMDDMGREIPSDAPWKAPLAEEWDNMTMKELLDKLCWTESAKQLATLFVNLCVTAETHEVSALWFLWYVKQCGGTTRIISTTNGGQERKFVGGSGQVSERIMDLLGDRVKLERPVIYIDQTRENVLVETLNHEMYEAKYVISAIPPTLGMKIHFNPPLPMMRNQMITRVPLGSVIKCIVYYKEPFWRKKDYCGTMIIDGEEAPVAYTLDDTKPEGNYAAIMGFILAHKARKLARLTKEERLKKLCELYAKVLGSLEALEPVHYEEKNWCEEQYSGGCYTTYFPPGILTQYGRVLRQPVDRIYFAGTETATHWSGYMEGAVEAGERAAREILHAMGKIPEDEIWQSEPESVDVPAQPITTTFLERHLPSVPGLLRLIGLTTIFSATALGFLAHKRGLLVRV

Experiments:
Homo sapiens = organism: Homo sapiens; assay: Selectivity index, ratio of IC50 for human recombinant MAOA to IC50 for human recombinant MAOB
[1] = biological target: Amine oxidase [flavin-containing] B (Homo sapiens, UniProt P27338); format: cell-based, BTI-TN-5B1-4

O=C(Nc1ccc(O)cc1)c1cc2ccccc2oc1=O
Ratio IC50 (Homo sapiens): > 125
IC50 [1]: 800 nM
